Laboratory results as given in patent US11597727B2 (THE REGENTS OF THE UNIVERSITY OF CALIFORNIA, priority 2018, dated 2023).

Legend:
[1] = system: mouse tracheal rings; experiment: IL-13 enhanced contraction in mouse tracheal rings ex vivo
[2] = system: renal fibrosis; conditions: administered by intraperitoneal (IP) injection; cited from earlier work

Question: What does the source list for `CC1(C)SCN(S(=O)(=O)c2ccccc2)[C@@H]1C(=O)N[C@@H](CNC(=O)NCc1ccccc1)C(=O)O`?
Answer: IL-13 enhanced contraction in mouse tracheal rings [1]: protects against IL-13 enhanced contraction; in vivo efficacy in a mouse model of renal fibrosis [2]: greatly improved in vivo efficacy
